These results are taken from article PMC11363325, “A Novel Prodrug Strategy Based on Reversibly Degradable Guanidine Imides for High Oral Bioavailability and Prolonged Pharmacokinetics of Broad-Spectrum Anti-influenza Agents” (ACS Central Science, 2024).

What all share (assay): microbe, parasite or virus in culture
The subject of test [1] is A/Puerto Rico/8/1934 (PR8; H1N1). To be noted: Influenza A virus, MDCK.
Test [2] has as its system A/Hong Kong/8/1968 (HK; H3N2). The note with it: Influenza A virus, H3N2, MDCK.
For another test, the system named is B/Lee/1940 (Lee). The note with it: Influenza B virus, MDCK.

As to `CCC(CC)O[C@@H]1C=C(C(=O)O)C[C@H](N=C(N2C(=O)[C@H]3CC=CC[C@H]3C2=O)N2C(=O)[C@H]3CC=CC[C@H]3C2=O)[C@H]1NC(C)=O` [OSC-GCDI(Ce)], the concentration for a half-maximal effect (EC50) in test [1] is 30 ± 10 nM; in test [2], 20 ± 10 nM.
On to `CCC(CC)O[C@@H]1C=C(C(=O)O)C[C@H](N=C(N2C(=O)CC(C)C2=O)N2C(=O)CC(C)C2=O)[C@H]1NC(C)=O` (stereo partly shown) [OSC-GCDI(M)], for which the half-maximal effective concentration (EC50) in the test on B/Lee/1940 (Lee) turned out to be 5550 ± 1650 nM; in test [2], 20 ± 10 nM.

Broadly, the EC50 is the midpoint of the concentration-response curve.
